# Antibody variant affinities, Ab-14 heavy chain, assay B

Target: peptide PDVDLGDISGINAS, taken from heptad repeat 2 (HR2) of SARS-CoV-2 spike.

Parent: Ab-14, a human scFv built as VH, the linker GGGGSGGGGSGGGGS, VL. Only the CDRs of the heavy chain vary.
VH: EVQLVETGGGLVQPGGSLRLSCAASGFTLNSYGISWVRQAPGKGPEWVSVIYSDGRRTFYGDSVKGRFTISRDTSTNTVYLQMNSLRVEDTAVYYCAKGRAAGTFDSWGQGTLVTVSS
VL: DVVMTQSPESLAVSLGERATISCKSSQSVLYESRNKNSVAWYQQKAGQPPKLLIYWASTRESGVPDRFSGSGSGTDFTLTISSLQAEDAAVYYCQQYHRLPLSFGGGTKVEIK

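The parent was found by panning a naive human phage display library on the peptide. The variants were designed computationally from a first round of random CDR variants and then made and measured. Group labels follow the data file (Ctrl: baseline library sampled from a position-specific scoring matrix, with some repeated check sequences; Rand: our label for a block that the file lists under HC and that is probably the random mutants of the ten best first-round binders; En: ensemble of fine-tuned language models; GP: Gaussian process model; GPLM: also part of the Gaussian process libraries; HC: hill climbing; Gen: genetic algorithm; Gibbs: Gibbs sampling; a sequence that several methods proposed may carry one label only). In AlphaSeq, yeast of one mating type display the scFv and yeast of the other type display the target. Mating (16 h, 30 °C) was followed by selection of diploids and sequencing of their barcodes. The ratio of observed to expected reads was calibrated, replicate by replicate, on BCL2-family standards whose Kd was known from biolayer interferometry. Mating was done six times.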

Each variant is given by its three heavy chain CDRs, as the data file delimits them; those of the parent are GFTLNSYGIS, VIYSDGRRTFYGDSVK, GRAAGTFDS. Values are apparent Kd, the geometric mean of the replicates that gave a signal; lower means stronger binding. "not detected" marks a missing value. The strain was present, yet no cells mated with the target were sequenced in any replicate, which points to weak or no binding. The authors averaged sequences with at least three values out of six and counted those with two or fewer as poor binders. Empty control strains, which show no peptide, gave a signal in 1% of pairings with all heavy chain designs; the median was 120 nM and 95% of these signals were weaker than 7.0 nM. No background was subtracted. A sequence measured in both rounds can read differently, since the two assays cover different ranges. Of ten entries with the parent sequence, four were seen in most replicates (averages 2.2 nM to 240 nM), three in one and three in none, so single entries are noisy.

CDR-H1,CDR-H2,CDR-H3,group,apparent Kd,seen in
GFDLDEYGIS,VIYADGMRTAYVDSVK,GENAGTFDI,En_Gen,6.2 nM,6/6
GFDLNEYGIS,VIYADGKRTFYSDSVK,GNTGGTFDV,En_HC,2.7 nM,6/6
GFDLNEYGIS,VIYADGKRTSYADSVK,GNVAGTFDQ,En_Gen,360 pM,6/6
GFTLDSYGIS,VIYSDGRRTFYADSVK,GQLAGTFDS,GP_HC,1.3 nM,6/6
GFELNEYGIS,VIYSDGRRTFYHDSVK,GKAAGTFDT,GP_Gibbs,860 pM,6/6
GFKLDEYGIS,VIYADGHRVAVSDKVK,GDNVGAFFV,En_Gibbs,not detected,0/6
GFDLNEYGIS,VIYADGMRTYYADSVK,GQNAGTFDL,En_Gen,390 pM,6/6
GFDLNEYGIS,VIYADGMRTAYADSVK,GNVAGTFDL,En_Gen,650 pM,6/6
GFDLEDYGIS,VIYADGMRTAYSDSVK,GENAGTFDV,En_Gen,850 pM,6/6
GETLNSYGIS,VIYSDGRRTFYGDSVK,GRAAGTFES,Ctrl,30 nM,5/6
GFDLKSYGIS,VIYSDGRRTAYGDSVK,GFAAGTFPS,Ctrl,not detected,0/6
GFGLNEYGIS,VIYADGQRKFYADNVK,GVFGSLGQV,En_Gibbs,not detected,0/6
GFTLNEYGIS,VIYSDGKRTFYGDSVK,GRAAGTFDS,GPLM_Gen,1.5 nM,6/6
GFNLNSYGIS,VIYSDGRRTFYGDPVK,GQTAGTFDS,GP_Gen,92 nM,4/6
GFDLNQYGIS,VIYSDGRRTFYADSVK,GRAAGTFDS,GPLM_HC,440 pM,6/6
GFDLNEYGIS,VIYADGKRTAYSDSVK,GNVAGTFDL,En_Gen,280 pM,6/6
GFNLDEYGIS,VIYADGRRTFYADSVK,GQVAGTFDE,En_HC,390 pM,6/6
GFELNSYGIS,VIYSDGRRTFYQDQVK,GRTAGTFDS,GP_Gibbs,42 nM,2/6
GFDLNEYGIS,VIYADGVRTAYSDSVK,GTNAGTFDL,En_Gen,320 pM,6/6
GFTLNEYGIS,VIYSDGRRTFYGDSVK,GRTAGTKES,Ctrl,not detected,0/6
GKHLDEYGIS,VIYADGQRVAYSDTVK,GIQGVNVDV,En_Gibbs,not detected,0/6
GFQLESYGIS,VIYSDGRRTFYADSVK,GRAAGTFDS,GPLM_Gen,7.3 nM,6/6
GFDLNEYGIS,VIYADGRRTFYADSVK,GNIAGTFDV,En_HC,210 pM,6/6
GFTLNDYGIS,VIYSDGRRTFYTDSVK,GKAAGTFIS,GPLM_HC,not detected,0/6
GFDLNEYGIS,VIYADGQRTAYSDSVK,GENAGTFDQ,En_Gen,520 pM,6/6
GFTLNSYGIS,VIYSDGKRTFYGDRVK,GNEAGTFDT,GP_Gibbs,2.0 nM,6/6
GFNLNSYGIS,VIYSDGRRTFYGDRVK,GREAGTFDS,GP_Gibbs,39 nM,5/6
GFNLDEYGIS,VIYADGRRKFYADSVK,GNTAGTFDS,En_HC,240 pM,6/6
GFTLMEYGIS,VIYSDGRRTAYGDSVK,GRAAGTFDS,Ctrl,4.2 nM,6/6
GFDLNEYGIS,VIYADGRRTAYADDVK,GNQAGTFDV,En_Gen,520 pM,6/6
GFVLNSYGIS,VIYSDGRRTFYADQVK,GKTAGTFDS,GP_Gibbs,64 nM,1/6
TFTLNEYAIS,VIYSDGRRTFYTDSVK,GRFAGTFDS,Rand,not detected,0/6
GFDLNEYGIS,VIYADGRRTFYADNVK,GEVAGTFNV,En_HC,260 pM,6/6
GFDLNEYGIS,VIYADGKRTAYTDSVK,GNTAGTFDI,En_Gen,280 pM,6/6
GFTLNSYGIS,VIYSDGLRTFYQPSVK,GRAAGTFDS,Ctrl,28 nM,1/6
GFNLDEYGIS,VIYADGQRTQYANDVK,GHYAGSMLS,En_Gibbs,not detected,0/6
GFDLSEYGIS,VIYADGRRTFYTDSVK,GEFAGTFDV,En_HC,2.6 nM,6/6
GFDLNEYGIS,VIYADGLRTAYIDSVK,GNVAGTFDV,En_Gen,77 pM,6/6
GFDLEDYGIS,VIYADGVRTAYSDNSK,GENGGALYT,En_Gibbs,not detected,0/6
GFTLNSYGIS,VIYKDGRRTFYGDSVK,GRAAGTNKS,Rand,not detected,0/6
GFDLNEYGIS,VIYADGVRTAYVDSVK,GNQAGTFDI,En_Gen,91 nM,3/6
GFNIDEYGIS,VIYADGRRTVYSDNVK,GNYMASGKI,En_Gibbs,not detected,0/6
GFTLNEYGIS,VIYSDGHRTFYGDSVK,HRNAGWFDS,Ctrl,1.4 nM,6/6
GFTLNSYGIS,VIYADGRRMFYGDSVK,GRAAGTNKS,Rand,not detected,0/6
GFTLNSYGIS,VIYSDGRRTFYGDSVK,GKEAGTFDN,GPLM_Gibbs,12 nM,6/6
GFSLDEYGIS,VIYADGVRTQYDDSFK,GTGDFDIEG,En_Gibbs,not detected,0/6
GFDLNEYGIS,VIYADGRRTFYADSVK,GQEAGTFDV,En_HC,370 pM,6/6
GFTLDSYGIS,VIYSDGRRTFYADDVK,GRAAGTFDS,GPLM_Gen,1.1 nM,5/6
PFDLNSYGIS,VIYSDGRRTFYIDSVK,GRTAGTFDS,GP_Gen,24 nM,6/6
GFTLNSYGSS,VIYSDGRRTFYGDSVK,GRAAGTFDS,Ctrl,170 nM,1/6
GFGLNSYGIS,VIYSDGRRTFYIDSVK,GRIAGTFDS,GP_HC,64 nM,3/6
GRTLNSYDIS,VIYSDGRRTFYGDSVK,GRAAGTFDS,Ctrl,not detected,0/6
GFDLNEYGIS,VIYADGIRTFYADSVK,GNAAGTFDI,En_HC,670 pM,6/6
GFYLNEYGIS,VIYSDGRRTFYGDSVK,GRHAGTFDS,GPLM_Gen,20 nM,6/6
GFDLNEYGIS,VIYADGMRTAYVDSVK,GGNAGTFDV,En_Gen,270 pM,6/6
GFNLNSYGIS,VIYSDGRRTFYGDSVK,GRASGTFES,Ctrl,31 nM,1/6
GFDLDEYGIS,VIYADGVRQAYADSVK,GNVAGTFDV,En_Gen,350 pM,6/6

The measurements come from Li et al. 2023 (doi:10.1038/s41467-023-39022-2) through the FLAb antibody collection.